These are literature values, as cited in article PMC8587714, “Preliminary Assessment of the Anti-inflammatory Activity of New Structural Honokiol Analogs with a 4′-O-(2-Fluoroethyl) Moiety and the Potential of Their ^18F-Labeled Derivatives for Neuroinflammation Imaging” (Molecules, 2021).

Structures are written as SMILES.

The subject of the data set is ovine COX-2. Also on record: method as in PMID 25074039. As to conditions: SI = COX-1 IC50/COX-2 IC50; ovine assay kit; cited from earlier work.

For the compound `C=CCc1ccc(O)c(-c2ccc(OC)c(CC=C)c2)c1` [MH, 4′-O-methylhonokiol], the “SI (Selectivity Index)” value is given as 40.
